EP4741397A1, “FUSED TRICYCLIC COMPOUND, AND PREPARATION METHOD THEREFOR AND USE THEREOF” (Shenzhen Zhongge Biological Technology Co., Ltd., priority 2023, dated 2025)

Chains of the proteins cited; added tags and fusions are not shown. Residues count along the entry.
UniProt Q6SZW1, 408-724 limits assumed: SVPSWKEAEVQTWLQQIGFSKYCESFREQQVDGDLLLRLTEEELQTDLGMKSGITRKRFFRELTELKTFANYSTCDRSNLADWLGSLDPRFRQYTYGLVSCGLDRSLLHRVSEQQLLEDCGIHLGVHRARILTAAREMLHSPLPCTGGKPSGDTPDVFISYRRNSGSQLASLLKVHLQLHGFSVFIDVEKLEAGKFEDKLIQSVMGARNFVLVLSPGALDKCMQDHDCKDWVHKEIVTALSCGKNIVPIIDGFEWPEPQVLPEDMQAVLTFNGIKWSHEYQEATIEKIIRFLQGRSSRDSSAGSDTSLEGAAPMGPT

What follows are compounds tested against SARM1 (Homo sapiens, UniProt Q6SZW1) (assay: In vitro enzyme inhibition activity (SAM-TIR lysate, NAD/ADPR by HPLC-MS/MS)). Conditions: read-out: SARM1 IC50; SAM-TIR lysate (SARM1 408-724) from NRK1-HEK293T cells; 25°C, 3 h with NAD.

IC50	Structure (SMILES)
> 1 µM	Nc1c2ccc3cnccc3c2nn1C(=O)CCc1ccc(Cl)cc1
> 1 µM	Nc1nn(C(=O)CCc2ccc(Cl)c(F)c2)c2c1CCOc1cnccc1-2
< 0.15 µM	O=C(CCc1ccc(Cl)c(F)c1)Nc1[nH]nc2c1CCOc1cnccc1-2

Structure (SMILES)	IC50
O=C1Nc2c3ccc4cnccc4c3nn2CCC1Cc1ccc(Cl)c(F)c1 (centres unmarked)	> 1 µM
O=C1C(Cc2ccc(Cl)c(F)c2)CCN1c1[nH]nc2c1ccc1cnccc12 (centres unmarked)	> 1 µM
